By UniProt entry, the sequences of proteins in these tests, tags left out. Residues count along the entry.
UniProt Q63380, 1-617: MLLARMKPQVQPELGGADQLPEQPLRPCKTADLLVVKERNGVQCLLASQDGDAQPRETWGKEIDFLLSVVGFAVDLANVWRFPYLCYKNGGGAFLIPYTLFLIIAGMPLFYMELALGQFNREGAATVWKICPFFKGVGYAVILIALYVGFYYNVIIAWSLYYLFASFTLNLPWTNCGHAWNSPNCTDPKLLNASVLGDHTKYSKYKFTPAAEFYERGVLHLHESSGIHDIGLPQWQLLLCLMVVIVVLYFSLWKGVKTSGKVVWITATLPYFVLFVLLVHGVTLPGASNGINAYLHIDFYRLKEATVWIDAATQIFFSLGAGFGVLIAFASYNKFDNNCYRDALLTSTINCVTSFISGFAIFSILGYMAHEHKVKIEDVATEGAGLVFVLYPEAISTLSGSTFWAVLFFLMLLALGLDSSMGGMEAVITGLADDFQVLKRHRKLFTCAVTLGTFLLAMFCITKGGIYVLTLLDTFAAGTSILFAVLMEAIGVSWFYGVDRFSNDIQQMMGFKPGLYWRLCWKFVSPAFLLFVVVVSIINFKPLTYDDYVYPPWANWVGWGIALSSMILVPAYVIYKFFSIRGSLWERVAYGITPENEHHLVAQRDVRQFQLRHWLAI

According to patent publication US8278338B2 (priority 2004, dated 2012):

Target: T1, NA reuptake (Rattus norvegicus, UniProt Q63380)
T1 construct: isolated from the hypothalamus of male rat brains; from tissue; host or cells: rat brain synaptosomes (P2 fraction), hypothalamus of male rats
Assay: Inhibition of NA reuptake in rat brain synaptosomes (hypothalamus, P2 fraction)
Assay type: biochemical
Conditions: Cheng-Prusoff
Experimental: In order to be able to carry out these in vitro studies, synaptosomes were freshly isolated from areas of rat brain. A so-called “P2” fraction was used in each case, which was prepared exactly according to the procedure of Gray, E. G. and Whittaker, V. P. (1962, J. Anat. […], 79-88). For NA reuptake, these vesicular particles were isolated from the hypothalamus of male rat brains, and for 5HT reuptake, they were isolated from the medulla+pons region.
IC50 values were obtained thereby which can be converted into inhibitor constants (Ki) according to the “Cheng-Prusoff equation” (Cheng, Y. C. and Prusoff, W. H., 1973, Biochem. Pharmacol. 22, 3099-3108). The IC50 values were obtained with the aid of the “Figure P” computer program (Version 6.0, Biosoft, Cambridge, England). Km values were calculated according to Lineweaver, H. and Burk, D. (1934, J. Am. Chem. Soc. 56, 658-666). The “Ligand” computer program (Version 4, Biosoft, England) was used to show KD values.

## COc1ccc(C(CN(C)C)C2(O)CCCCC2)cc1 (stereo not shown) [Venlafaxin, venlafaxin, reference compound]
  Ki: 450 nM
